Screening data: PubChem BioAssay, several laboratories
SMARCA2 activ = SMARCA2 function activation, primary screen; MG213 cells, MMTV-luciferase reporter, dexamethasone, overnight; 1% of 370,000 active; activation, % at 9.1 µM; AID 652017; in the data active = activation above about 7.8%
ERp5 block = blocks human ERp5 reductase activity on insulin | Q15084 | ERp5 insulin aggregation, absorbance 650 nm, 90 min | inhibition, % at 9.99 µM | 0.05% of 350,000 active | AID 651711;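 active = mean replicate inhibition above about 25%, with every replicate also reaching it, limit read from the data, passing the limit was not always enough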
INS-1E GSIS act = primary screen for activators of insulin secretion dependent on glucose, INS-1E cells, GLuc reporter luminescence; INS-1E GLuc reporter insulin secretion, 2-3 h; activation, % at 16.6 µM; 0.61% of 370,000 active;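 active = lowest replicate activation of at least 40%, so every replicate reaches that level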
NR1D1 modulator = Rev-erb alpha (human) modulation; activity, % at 10 µM; Rev-erbα–FITC-DNA binding, fluorescence polarization, 90 min; AID 1259318; P20393; 0.79% of 370,000 active;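 active = activity above about 14%, limit read from the data; passing the limit was not always enough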
PDI turbidity = blocks human protein disulfide isomerase activity | P07237 | PDI insulin aggregation turbidity, A650, 90 min | inhibition, % at 10 µM | 0.052% of 350,000 active | AID 588391;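 active = mean inhibition across replicates of 30% or more, whatever share of single replicates reach that level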
UUG fidelity = modulators of start codon recognition fidelity in yeast. S. cerevisiae UUG-firefly luciferase reporter, luminescence/redox ratio. activity score, % at 18.7 µM. 0.13% of 350,000 active. AID 602363;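 active = replicate mean at a twofold rise or more, about +100% in these data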;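 also: firefly luciferase made from a UUG start codon reports start codon fidelity; reporter light over untreated wells divided by growth signal over untreated wells; some hits fall short of that in this replicate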
Numbers stand for hits; - = inactive; . = no result given. Compounds with a hit are over-represented: about 2.1% of the library has one in this group of screens.

SMILES	SMARCA2 activ	ERp5 block	INS-1E GSIS act	NR1D1 modulator	PDI turbidity	UUG fidelity
NC(=O)c1cc2cc(Cl)ccc2o/c1=N/NC(=O)c1cccs1	-	-	43	-	-	-
O=C(CCl)N=c1sccn1Cc1ccccc1Cl	-	-	61	-	-	-
COc1ccc(S(=O)(=O)N(C)c2ccc(C(=O)NCC3CCCO3)cc2)cc1OC (stereo not drawn)	-	-	48	-	-	-
O=C(Nc1ccccc1C(=O)NCC1CCCO1)c1ccc(Cl)cc1 (stereo not drawn)	-	-	-	-	-	-
COCCNC(=O)c1ccc(N(C)S(=O)(=O)c2ccc(OC)c(OC)c2)cc1	-	.	44	-	-	-
CN(c1ccc(C(=O)NCC2CCCO2)cc1)S(C)(=O)=O (stereo not drawn)	-	-	-	-	-	-
COc1ccc(C(=O)Nc2ccccc2C(=O)NCC2CCCO2)cc1 (stereo not drawn)	-	-	52	-	-	-
O=C(C[C@@H]1C[C@@H]2c3cc(NC(=O)C4CCC4)ccc3O[C@@H]2[C@@H](CO)O1)NCc1ccccn1	.	-	-	.	.	.
O=C(C[C@H]1CC[C@@H](NC(=O)C2CCOCC2)[C@@H](CO)O1)Nc1nccs1	.	-	-	.	.	-
CN(C)C(=S)Nc1ccc([N+](=O)[O-])cc1	-	.	68	-	-	.
COc1ccc(C2N(c3ccccc3)C(=O)C2(F)F)cc1OC (stereo not drawn)	-	-	44	-	-	-
Cc1ccc(N2C(=O)C(F)(F)C2c2ccccc2)cc1 (stereo not drawn)	-	-	-	-	-	-
CN(C)C(=O)c1ccc(-c2ccc([C@@H]3[C@@H](CO)N4C(=O)CN(C(=O)C5CC5)C[C@@H]34)cc2)cc1	.	-	67	.	.	.
O=C(Nc1nnc(-c2ccc(Cl)cc2)o1)NC1CCCCC1	-	.	59	-	-	-
COc1ccc2c3c(n(C)c2c1)[C@H](CO)N(Cc1ccccc1OC)CC31CN(C(=O)C2CC2)C1	.	.	-	.	.	.
CNC[C@H]1Oc2ccc(NC(=O)Nc3ccccc3)cc2C(=O)N([C@@H](C)CO)C[C@@H]1C	.	-	-	.	.	.
COc1ccc2ccc(=O)oc2c1CC=C(C)C	-	-	62	-	.	-
COc1cc(C)c(Cl)cc1S(=O)(=O)NCc1ccco1	-	.	.	-	-	-
CCOc1cc(C)c(Cl)cc1S(=O)(=O)NCc1ccco1	-	.	.	-	-	310
CCn1c2ccccc2c2nnc(SCC(=O)NC(CC(C)C)C(=O)OC)nc21 (stereo not drawn)	7.8	.	.	-	-	-
CCOC(=O)CSc1nnc2c3ccccc3n(CC)c2n1	-	-	.	-	-	-
O=C(c1cccs1)c1coc2ccc(O)c(CN3CCOCC3)c12	-	-	65	-	-	-
Cc1c(-c2cccc(Cl)c2)nc2ccccc2c1C(=O)NC1CC1	-	-	99	-	-	-
CO[C@H]1CN(C)C(=O)c2cc(NC(=O)Nc3ccccc3)ccc2OC[C@@H](C)N(C(=O)CC2CC2)C[C@@H]1C	.	-	-	.	.	.
C1CCN(CCCNC2C3CC4CC(C3)CC2C4)C1 (stereo not drawn)	-	-	40	-	-	-
SMILES	SMARCA2 activ	ERp5 block	INS-1E GSIS act	NR1D1 modulator	PDI turbidity	UUG fidelity
CC(C)Nc1nc(NC(C)(C)C)nc(Oc2ccc(=O)n(C)n2)n1	-	-	41	-	-	-
CCOc1ccc(NC(=O)COc2ccc(N3CC(C(N)=O)CC3=O)cc2)cc1 (stereo not drawn)	-	-	-	-	-	-
CNC(=O)C1CC(=O)N(c2ccc(OCC(=O)Nc3ccccc3)cc2)C1 (stereo not drawn)	-	-	55	-	-	-
CC(C)Nc1nc(NC(N)=S)nc(NC(C)C)n1	-	.	82	-	-	.
CC(C)Nc1nc(NC(N)=S)nc(NC(C)(C)C)n1	-	-	44	-	-	.
CCNc1nc(NC(C)C)nc(NC(C)(C)C)n1	-	-	-	-	-	.
O=C(NCc1ccncn1)[C@@H]1[C@@H](CO)[C@@H]2Cn3c(ccc(-c4cccc(F)c4)c3=O)[C@@H]2N1CC1CC1	.	-	-	.	.	.
C[C@@H]1CCCCO[C@H](CN(C)C(=O)NC2CCCCC2)[C@H](C)CN([C@@H](C)CO)C(=O)c2cc(NC(=O)Nc3ccccc3)ccc2O1	.	-	-	.	.	-
O=C(CSc1ccc(Cl)cc1)Nc1ccc(-c2nc3ccccc3[nH]2)cc1	-	.	106	-	-	-
Cc1cc(C)n(-c2nc(SCC(=O)O)c3c4c(sc3n2)COC(C)(C)C4)n1	-	-	43	-	-	.
COc1cc(NC(=O)c2ccco2)c(OC)cc1NC(=O)c1cc(OC)c(OC)c(OC)c1	-	.	-	-	-	-
CCOc1cc(NC(=O)c2ccco2)c(OCC)cc1NC(=O)c1cc(OC)c(OC)c(OC)c1	-	.	45	-	-	-
CCCC#Cc1ccc([C@@H]2[C@H](CO)N3CCCCN(C(=O)NC4CCCC4)C[C@@H]23)cc1	.	-	-	.	.	-
CO[C@H]1CN(C)C(=O)c2ccc(NC(C)=O)cc2OC[C@H](C)N(C(=O)c2ccccc2)C[C@@H]1C	.	-	-	.	.	.
CCCCCCOC(=O)C[N+](C)(C)CCOC1CC2CCC1(C)C2(C)C (stereo not drawn)	-	.	.	-	-	-
CCCCCCCOC(=O)C[N+](C)(C)CCOC1CC2CCC1(C)C2(C)C (stereo not drawn)	-	-	433	-	-	.
COc1cc2cnc(Cl)nc2cc1OC	-	.	61	-	-	-
COc1cc2nncc(SC)c2cc1OC	-	-	.	-	-	-
O=C1CCC(=O)N1CCC(c1ccc(F)cc1)c1ccco1 (stereo not drawn)	-	-	-	-	-	-
O=C1c2ccccc2C(=O)N1CCC(c1ccc(F)cc1)c1ccco1 (stereo not drawn)	-	.	43	-	-	-
COc1ccc(CCC(=O)OCC(=O)Nc2ccc3[nH]c(=O)[nH]c3c2)cc1	-	-	45	-	-	.
COc1ccc(OCC(=O)OCC(=O)Nc2ccc3[nH]c(=O)[nH]c3c2)cc1	-	-	-	-	-	-
O=C(N1CCOCC1)N1CCN(c2ccccn2)CC1	-	.	46	-	-	-
Cc1cccc(OCC(=O)Nc2ccc(NC(=O)c3ccco3)cc2)c1	-	-	75	-	-	-
COc1ccc(OCC(=O)Nc2cccc(NC(=O)c3ccco3)c2)cc1	-	-	-	-	-	.
O=C(Cc1c[nH]c2ccccc12)N1CCN(S(=O)(=O)c2ccc(Cl)cc2)CC1	-	-	-	-	-	-
CC(=O)NC(Cc1c[nH]c2ccccc12)C(=O)OCC(=O)N1CCN(S(=O)(=O)c2ccc(Cl)cc2)CC1 (stereo not drawn)	-	-	-	-	32	-
CSc1nc(Cl)cc(N2CCOCC2)n1	-	-	53	-	-	.
CSc1nc(N2CCOCC2)cc(N2CCOCC2)n1	-	-	-	-	-	.
CSc1nc(N2CCOCC2)c2ccccc2n1	-	-	92	-	-	.
